# pIC50: −log10 of the molar value.
# Protein sequences, listed by entry. Tags and fused reporters are not part of them. Residues count along the entry.
# UniProt P06276, 29-602: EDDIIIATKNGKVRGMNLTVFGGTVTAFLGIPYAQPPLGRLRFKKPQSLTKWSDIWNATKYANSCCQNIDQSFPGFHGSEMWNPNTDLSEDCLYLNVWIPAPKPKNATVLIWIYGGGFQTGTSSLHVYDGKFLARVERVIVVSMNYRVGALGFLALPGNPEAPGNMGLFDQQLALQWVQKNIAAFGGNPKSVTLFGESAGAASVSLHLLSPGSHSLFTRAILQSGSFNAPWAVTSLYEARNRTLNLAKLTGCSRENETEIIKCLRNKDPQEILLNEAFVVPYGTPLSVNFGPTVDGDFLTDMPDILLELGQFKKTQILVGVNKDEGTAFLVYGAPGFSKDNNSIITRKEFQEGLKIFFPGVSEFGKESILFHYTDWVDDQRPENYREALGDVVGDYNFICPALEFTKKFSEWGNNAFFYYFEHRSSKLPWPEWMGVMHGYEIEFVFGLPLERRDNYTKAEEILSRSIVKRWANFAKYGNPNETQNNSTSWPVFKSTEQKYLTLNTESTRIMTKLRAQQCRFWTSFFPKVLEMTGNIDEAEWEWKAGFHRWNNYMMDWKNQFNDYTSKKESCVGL
# Target: T1, BuChE (from human serum) (Homo sapiens, UniProt P06276)
# T1 construct: human BuChE purified by human serum; from tissue; host or cells: human serum
# Test: biochemical
# Procedure: All of the assay of acetylcholinesterase (AChE) and butyrylcholinesterase (BuChE) were performed according to the method described by Ellman et al. using the rat AChE purified from the rat brain and human BuChE purified by human serum. In an enzymatic reaction medium contained different concentration of tested compounds and AChE suspended in the phosphate buffer solution at pH 7.2. After 30 min at room temperature, acetylthiocholine iodide and 5.5′-dithiobis-2-nitrobenzoic acid (DNTB) were added and the reaction mixture incubated at 37 °C for 60 min. […] The parallel control experiment was carried without tested compounds in the reaction mixture. For BuChE inhibitory assay, the procedure described above was followed except for the use of enzyme and substrate, instead of which butyrylcholinesterase and butyrylthiocholine chloride were used, respectively. Assays were done with a blank containing all compounds except AChE or BuChE in order to account for nonenzymatic reactions. Each inhibitory test was conducted in triplicate. […] Each concentration was assayed in triplicate and data were expressed as the mean ± SEM.
smiles,measurement,value
"CC(C)NP(=O)(NC(C)C)OP(=O)(NC(C)C)NC(C)C [ISO-OMPA, tetraisopropyl-pyrophosph-oramide, reference compound]",pIC50,6.14
